Assay results published in patent US5426113A, “Method of preventing ulcer formation caused by nonsteroidal antiinflammatory drugs employing tetrazol-benzothiophene carboxamide compounds” (Warner-Lambert Company, priority 1994, dated 1995).

Target: T1, MAC-1 (Homo sapiens, UniProt P05107+P11215)
T1 construct: endogenous in cells
Assay: Inhibition of MAC-1 mediated adhesion of FMLP-stimulated neutrophils to KLH-coated plastic
Type: cell-based

Row | SMILES | IC50
1 | COc1cc2sc(C(=O)Nc3nn[nH]n3)c(OC(C)C)c2cc1OC [Example 3, 5,6-Dimethoxy-3-(1-methylethoxy)-N-1H-tetrazol5-yl-benzo[b]thiophene-2-carboxamide] | 1300 nM
2 | COc1ccc2c(OC(C)C)c(C(=O)Nc3nn[nH]n3)sc2c1 [Example 2, 6-Methoxy-3-(1-methylethoxy)-N-1H-tetrazol-5-yl-benzo[b]thiophene-2-carboxamide] | < 3300 nM
3 | COc1cc2sc(C(=O)Nc3nn[nH]n3)c(Oc3ccccc3)c2cc1OC [Example 4, 5,6-Dimethoxy-3-phenoxy-N-1H-tetrazol-5-yl-benzo[b]thiophene-2-carboxamide] | < 3300 nM
